{"source": "patent US20210024615A1", "about": "(LIVERPOOL SCHOOL OF TROPICAL MEDICINE, published 2021)", "molecular_target": "T1, IgG1-Fc (human, UniProt P01857, in part = IgG part)", "T1 construct": "domain: Fc", "test": "ELISA", "data": [{"binder": "MBL (receptor, UniProt P11226 21-248, looked up) ETVTCEDAQKTCPAVIACSSPGINGFPGKDGRDGTKGEKGEPGQGLRGLQGPPGKLGPPGNPGPSGSPGPKGQKGDPGKSPDGDSSLAASERKALQTEMARIKKWLTFSLGKQVGNKFFLTNGEIMTFEKVKALCVKFQASVATPRNAAENGAIQNLIKEEAFLGITDEKTEGQFVDLTGNRLTYTNWNEGEPNNAGSDEDCVLLLKNGQWNDVPCSTSHLAVCEFPI", "values": [{"measurement": "binding result", "value": "no binding"}]}]}
